Source: patent EP4279092A1

Each substance was assayed against prostate-specific membrane antigen (PSMA), coated on M-270-carboxy Dynabeads (human) (UniProt Q04609) (assay: radioligand binding to PSMA-coated M-270-carboxy Dynabeads, unspecific binding from samples blocked with excess naked PSMA mAb subtracted).

In order of falling IRF (immunoreactive fraction):
1. Ac-225-macropa-Pelgifatamab (CAR 0.8) (antibody)  95%
2. Ac-225-DOTA-Pelgifatamab CAR 5.7 (antibody)  92%
3. Ac-225-DOTA-Pelgifatamab CAR 12.7 (antibody)  74%
